Experimental data: US12509457B2, “Bicyclic nitrogen containing heterocycles as inhibitors of salt-induced kinase SIK2” (priority 2019, dated 2025)

Chains of the proteins cited; added tags and fusions are not shown. Residues count along the entry.
UniProt P29317, 24-976 limits assumed: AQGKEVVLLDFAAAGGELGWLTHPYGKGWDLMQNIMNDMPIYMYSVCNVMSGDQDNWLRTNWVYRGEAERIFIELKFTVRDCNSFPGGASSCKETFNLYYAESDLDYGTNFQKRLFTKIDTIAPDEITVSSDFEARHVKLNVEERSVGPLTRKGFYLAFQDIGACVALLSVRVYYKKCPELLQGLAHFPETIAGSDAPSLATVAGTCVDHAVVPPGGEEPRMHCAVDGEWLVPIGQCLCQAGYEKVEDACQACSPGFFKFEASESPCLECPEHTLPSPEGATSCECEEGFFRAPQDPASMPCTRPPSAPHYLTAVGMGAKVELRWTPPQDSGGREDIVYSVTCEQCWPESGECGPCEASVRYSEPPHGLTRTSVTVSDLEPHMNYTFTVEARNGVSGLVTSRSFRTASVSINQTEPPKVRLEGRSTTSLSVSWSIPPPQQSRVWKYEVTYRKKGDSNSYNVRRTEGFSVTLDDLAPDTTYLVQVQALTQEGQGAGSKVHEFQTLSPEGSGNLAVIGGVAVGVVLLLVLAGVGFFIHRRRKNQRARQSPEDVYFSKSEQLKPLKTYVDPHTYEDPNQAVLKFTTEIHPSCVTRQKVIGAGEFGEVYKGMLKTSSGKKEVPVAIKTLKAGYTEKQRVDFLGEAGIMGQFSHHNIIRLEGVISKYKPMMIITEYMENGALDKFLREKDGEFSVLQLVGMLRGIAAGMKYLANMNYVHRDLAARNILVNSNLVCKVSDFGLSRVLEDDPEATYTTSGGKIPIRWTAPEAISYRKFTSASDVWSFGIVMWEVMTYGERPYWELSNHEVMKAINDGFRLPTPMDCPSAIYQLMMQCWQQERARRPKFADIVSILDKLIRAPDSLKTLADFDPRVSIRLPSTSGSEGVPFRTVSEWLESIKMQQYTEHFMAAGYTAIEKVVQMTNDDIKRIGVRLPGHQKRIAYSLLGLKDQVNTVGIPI

molecular target: EPHA2 (Homo sapiens, UniProt P29317); test: EPHA2 kinase assay, IMAP fluorescence polarization; assay type: biochemical; details: read-out: EPHA2-AVERAGE Ki, 50 or 100 μM ATP

SMILES | Ki [nM]
CCN1CCC(N2C(=O)N(c3c(C)cccc3F)Cc3cncnc32)CC1 [Example 27, 1-(1-ethyl-4-piperidyl)-3-(2-fluoro-6-methyl-phenyl)-4H-pyrimido[4,5-d]pyrimidin-2-one] | 6630
CCN1CCC(N2C(=O)N(c3c(C)cccc3Cl)Cc3cnccc32)CC1 [Example 33, 3-(2-chloro-6-methyl-phenyl)-1-(1-ethyl-4-piperidyl)-4H-pyrido[4,3-d]pyrimidin-2-one] | 163
Cc1cccc(F)c1N1Cc2cnc(N)cc2N(C2CCN(C)CC2)C1=O [Example 3, 7-Amino-3-(2-fluoro-6-methyl-phenyl)-1-(1-methyl-4-piperidyl)-4H-pyrido[4,3-d]pyrimidin-2-one] | 206
Cc1cccc(Cl)c1N1Cc2cnc(N)cc2N(C2CCNCC2)C1=O [Example 6, 7-amino-3-(2-chloro-6-methyl-phenyl)-1-(4-piperidyl)-4H-pyrido[4,3-d]pyrimidin-2-one] | 59
Cc1cccc(Cl)c1N1Cc2cncnc2N(C2CCNCC2)C1=O [Example 17, 3-(2-chloro-6-methyl-phenyl)-1-(4-piperidyl)-4H-pyrimido[4,5-d]pyrimidin-2-one] | 801
Cc1cccc(Cl)c1N1Cc2cnc(N)nc2N(C2CCNCC2)C1=O [Example 15, 7-Amino-3-(2-chloro-6-methyl-phenyl)-1-(4-piperidyl)-4H-pyrimido[4,5-d]pyrimidin-2-one] | 30.7
Cc1cccc(Cl)c1N1Cc2cnc(N)nc2N(C2CCN(C)CC2)C1=O [Example 22, 7-amino-3-(2-chloro-6-methyl-phenyl)-1-(1-methyl-4-piperidyl)-4H-pyrimido[4,5-d]pyrimidin-2-one] | 57.6
CCN1CCC(N2C(=O)N(c3c(C)cccc3F)Cc3cnccc32)CC1 [Example 25, 1-(1-ethyl-4-piperidyl)-3-(2-fluoro-6-methyl-phenyl)-4H-pyrido[4,3-d]pyrimidin-2-one] | 840
Cc1cccc(F)c1N1Cc2cnc(N)nc2N(C2CCN(C)CC2)C1=O [Example 19, 7-Amino-3-(2-fluoro-6-methyl-phenyl)-1-(1-methyl-4-piperidyl)-4H-pyrimido[4,5-d]pyrimidin-2-one] | 93
CCN1CCC(N2C(=O)N(c3c(C)cccc3Cl)Cc3cncnc32)CC1 [Example 29, 3-(2-chloro-6-methyl-phenyl)-1-(1-ethyl-4-piperidyl)-4H-pyrimido[4,5-d]pyrimidin-2-one] | 1730
Cc1cccc(F)c1N1Cc2cnccc2N(C2CCNCC2)C1=O [Example 18, 3-(2-Fluoro-6-methyl-phenyl)-1-(4-piperidyl)-4H-pyrido[4,3-d]pyrimidin-2-one] | 353
Cc1cccc(Cl)c1N1Cc2cncnc2N(C2CCN(C)CC2)C1=O [Example 28, 3-(2-chloro-6-methyl-phenyl)-1-(1-methyl-4-piperidyl)-4H-pyrimido[4,5-d]pyrimidin-2-one] | 1720
Cc1cccc(Cl)c1N1Cc2cnccc2N(C2CCNCC2)C1=O [Example 66, 3-(2-chloro-6-methyl-phenyl)-1-(4-piperidyl)-4H-pyrido[4,3-d]pyrimidin-2-one] | 56.9
Cc1cccc(Cl)c1N1Cc2cnc(N)cc2N(C2CCN(C)CC2)C1=O [Example 7, 7-amino-3-(2-chloro-6-methyl-phenyl)-1-(1-methyl-4-piperidyl)-4H-pyrido[4,3-d]pyrimidin-2-one] | 70.2
Cc1cccc(F)c1N1Cc2cnccc2N(C2CCN(C)CC2)C1=O [Example 24, 3-(2-fluoro-6-methyl-phenyl)-1-(1-methyl-4-piperidyl)-4H-pyrido[4,3-d]pyrimidin-2-one] | 460
Cc1cccc(F)c1N1Cc2cncnc2N(C2CCN(C)CC2)C1=O [Example 26, 3-(2-fluoro-6-methyl-phenyl)-1-(1-methyl-4-piperidyl)-4H-pyrimido[4,5-d]pyrimidin-2-one] | 3110
Cc1cccc(F)c1N1Cc2cncnc2N(C2CCNCC2)C1=O [Example 16, 3-(2-fluoro-6-methyl-phenyl)-1-(4-piperidyl)-4H-pyrimido[4,5-d]pyrimidin-2-one] | 4790
Cc1cccc(F)c1N1Cc2cnc(N)nc2N(C2CCNCC2)C1=O [Example 11, 7-Amino-3-(2-fluoro-6-methyl-phenyl)-1-(4-piperidyl)-4H-pyrimido[4,5-d]pyrimidin-2-one] | 105
CCN1CCC(N2C(=O)N(c3c(C)cccc3F)Cc3cnc(N)nc32)CC1 [Example 20, 7-amino-1-(1-ethyl-4-piperidyl)-3-(2-fluoro-6-methyl-phenyl)-4H-pyrimido[4,5-d]pyrimidin-2-one] | 153
Cc1cccc(Cl)c1N1Cc2cnccc2N(C2CCN(C)CC2)C1=O [Example 32, 3-(2-chloro-6-methyl-phenyl)-1-(1-methyl-4-piperidyl)-4H-pyrido[4,3-d]pyrimidin-2-one] | 88.8
Cc1cccc(F)c1N1Cc2cnc(N)cc2N(C2CCNCC2)C1=O [Example 1, 7-Amino-3-(2-fluoro-6-methyl-phenyl)-1-(4-piperidyl)-4H-pyrido[4,3-d]pyrimidin-2-one] | 188
